Values of other authors in patent publication US20030022909A1, “Use of methylnaltrexone to treat immune suppression” (University of Chicago, priority 2001, published 2003).
Some compounds may have been tested in ways that are not shown here.

Conditions: in vivo; cited from earlier work

CCC(=O)N(c1ccccc1)C1(C(=O)OC)CCN(CCC(=O)OC)CC1
half-life: only several minutes
